From patent US5017602A, “Antagonists of organophosphate-induced toxicity” (dated 1991)

Key:
mice = assay: LD50 (IM) in mice
[1] = system: Paraoxon-induced toxicity; assay: Protection against Paraoxon-induced toxicity/lethality in mice; conditions: for Therapeutic Index: LD50/PD50; for survival, Paraoxon-induced lethality: best survival reached; for therapeutic index / therapeutic ratio (in words): compared with physostigmine and pyridostigmine
[2] = system: neuromuscular transmission; assay: Inhibition of rabbit neuromuscular transmission; conditions: for ID50 (95% C.L.), inhibition of rabbit neuromuscular transmission: IV, anesthetized rabbit, sciatic nerve stimulation, 95% C.L. in parentheses; for "cholinergic" responses: probably by inhibition of acetylcholinesterase; for Antagonism of the neuromuscular block by choline: choline chloride 5 mg/kg IV; for Inhibition of neuromuscular transmission (in words): rabbit
choline transport = assay: Inhibition of choline transport (suggested by studies in rabbits)
[3] = system: neuromuscular transmission; conditions: prior knowledge; cited from earlier work
[4] = system: sodium-dependent high affinity choline uptake mechanism; conditions: prior knowledge; cited from earlier work

CNC(=O)Oc1ccc2c(c1)[C@]1(C)CCN(C)[C@@H]1N2C
LD50 (mice; Table 3): 1.2 µmol/kg
Therapeutic Index ([1]; mice): 60

Br.Br.O=C(CN1CCCCC1)c1ccc(-c2ccc(C(=O)CN3CCCCC3)cc2)cc1
LD50 (mice; IM): 397.5 µmol/kg
ID50 (95% C.L.), inhibition of rabbit neuromuscular transmission [2]: > 1.8 µmol/kg

C[N+]1(CC(=O)c2ccc(-c3ccc(C(=O)C[N+]4(C)CCCCC4)cc3)cc2)CCCCC1
LD50 (mice; IM): 1.6 µmol/kg
"cholinergic" responses [2]: produced "cholinergic" responses
antagonism of Paraoxon-induced toxicity (in words) ([1]; mice): only moderately effective
survival, Paraoxon-induced lethality ([1]; mice): at least 50%

C[N+]1(CC(=O)c2ccc(-c3ccc(C(=O)C[N+]4(C)CCOCC4)cc3)cc2)CCOCC1
LD50 (mice; IM): 3.8 µmol/kg
"cholinergic" responses [2]: produced "cholinergic" responses

CN(C)C(=O)Oc1ccc[n+](C)c1
LD50 (mice; Table 3): 10.3 µmol/kg
Therapeutic Index ([1]; mice): 8

CC1CCC[N+]1(C)CC(=O)c1ccc(-c2ccc(C(=O)C[N+]3(C)CCCC3C)cc2)cc1 (centres unmarked)
LD50 (mice; IM): 0.67 µmol/kg
Antagonism of the neuromuscular block by choline [2]: choline is an effective antagonist
Inhibition of neuromuscular transmission (in words) [2]: potent inhibitors of neuromuscular transmission

C[N+]1(CC(=O)c2ccc(-c3ccc(C(=O)C[N+]4(C)CCCC4)cc3)cc2)CCCC1
LD50 (mice; IM): 0.74 µmol/kg
Antagonism of the neuromuscular block by choline [2]: choline is an effective antagonist
"cholinergic" responses [2]: produced "cholinergic" responses
Inhibition of neuromuscular transmission (in words) [2]: potent inhibitors of neuromuscular transmission

C[N+](C)(CC(=O)c1ccc(-c2ccc(C(=O)C[N+](C)(C)CC3OCCCO3)cc2)cc1)CC1OCCCO1
LD50 (mice; IM): 7.3 µmol/kg
LD50 (mice; Table 3): 7.3 µmol/kg
"cholinergic" responses [2]: produced "cholinergic" responses
inhibition of choline transport (in words) (choline transport): weak inhibitor of choline transport
prophylactic effect ([1]; administered prior to exposure): prophylactic effect
therapeutic index / therapeutic ratio (in words) [1]: far superior to the commercially known antagonists
therapeutic index / therapeutic ratio (in words) ([1]; listed as 4,4'-bis-[(1,3-dioxan-2-ylmethyl)amino-acetyl]biphenylDimethbromide): very high therapeutic ratio
ED50, antagonism of Paraoxon-induced toxicity ([1]; mice, 1440 min): 0.013 mg/kg
Therapeutic Index ([1]; mice): 360
survival, Paraoxon-induced lethality ([1]; mice): at least 50%

O=C(CN1CCCC1)c1ccc(-c2ccc(C(=O)CN3CCCC3)cc2)cc1
LD50 (mice; IM): 743.5 µmol/kg
ID50 (95% C.L.), inhibition of rabbit neuromuscular transmission [2]: > 5.6 µmol/kg

C[N+]1(C)CCOC(O)(c2ccc(-c3ccc(C4(O)C[N+](C)(C)CCO4)cc3)cc2)C1 (centres unmarked)
blockade of neuromuscular transmission (background) [3]: blockade of neuromuscular transmission
inhibition of sodium-dependent high affinity choline uptake (background) [4]: inhibition of the sodium-dependent high affinity choline uptake mechanism

CC1C[N+](C)(CC(=O)c2ccc(-c3ccc(C(=O)C[N+]4(C)CCOC(C)C4)cc3)cc2)CCO1 (centres unmarked)
LD50 (mice; IM): 13.0 µmol/kg
ID50 (95% C.L.), inhibition of rabbit neuromuscular transmission [2]: > 0.16 µmol/kg
"cholinergic" responses [2]: produced "cholinergic" responses
antagonism of Paraoxon-induced toxicity (in words) ([1]; mice): only moderately effective
survival, Paraoxon-induced lethality ([1]; mice): at least 50%

CC1CC[N+](C)(CC(=O)c2ccc(-c3ccc(C(=O)C[N+]4(C)CCC(C)C4)cc3)cc2)C1 (centres unmarked)
LD50 (mice; IM): 0.84 µmol/kg

Cl.Cl.O=C(CN1CCOCC1)c1ccc(-c2ccc(C(=O)CN3CCOCC3)cc2)cc1
LD50 (mice; IM): > 2079 µmol/kg
ID50 (95% C.L.), inhibition of rabbit neuromuscular transmission [2]: > 2.08 µmol/kg
